Experimental data reported in BindingDB's records for doi:10.1016/s0024-3205(00)00911-5 (Mayo Foundation, 2000).

Amino acid sequences for entries named in this document (tags omitted).
UniProt P35367, whole entry: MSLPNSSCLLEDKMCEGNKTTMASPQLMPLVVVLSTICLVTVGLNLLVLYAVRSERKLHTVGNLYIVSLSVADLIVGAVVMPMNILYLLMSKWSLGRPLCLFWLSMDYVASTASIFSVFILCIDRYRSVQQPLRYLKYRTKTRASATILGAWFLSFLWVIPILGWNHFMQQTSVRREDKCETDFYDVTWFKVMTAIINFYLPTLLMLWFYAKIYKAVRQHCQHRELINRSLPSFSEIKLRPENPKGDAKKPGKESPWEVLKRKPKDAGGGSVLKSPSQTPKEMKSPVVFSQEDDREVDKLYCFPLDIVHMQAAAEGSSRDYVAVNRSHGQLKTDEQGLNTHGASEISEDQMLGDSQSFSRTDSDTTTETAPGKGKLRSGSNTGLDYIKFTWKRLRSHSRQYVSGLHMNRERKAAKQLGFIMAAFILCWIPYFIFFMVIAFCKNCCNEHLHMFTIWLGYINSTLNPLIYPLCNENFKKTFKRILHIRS
UniProt P28223, whole entry: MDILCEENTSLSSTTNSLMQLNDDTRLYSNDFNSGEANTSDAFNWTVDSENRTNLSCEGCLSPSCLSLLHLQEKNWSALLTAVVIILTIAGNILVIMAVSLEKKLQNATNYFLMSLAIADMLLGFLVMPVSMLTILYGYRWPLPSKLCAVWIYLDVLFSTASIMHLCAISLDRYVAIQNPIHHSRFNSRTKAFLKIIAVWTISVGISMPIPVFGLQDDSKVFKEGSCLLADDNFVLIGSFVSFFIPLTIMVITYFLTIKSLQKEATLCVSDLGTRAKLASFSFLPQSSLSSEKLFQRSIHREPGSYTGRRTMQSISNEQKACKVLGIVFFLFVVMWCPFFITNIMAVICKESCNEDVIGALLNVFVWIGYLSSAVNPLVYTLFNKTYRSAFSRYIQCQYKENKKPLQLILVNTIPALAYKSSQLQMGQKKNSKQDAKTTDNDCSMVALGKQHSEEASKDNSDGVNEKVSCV

How the values were obtained:
[1] = biological target: T1, Alpha-1A adrenergic receptor (Homo sapiens, UniProt P35348)
T1 sequence (P35348 whole entry): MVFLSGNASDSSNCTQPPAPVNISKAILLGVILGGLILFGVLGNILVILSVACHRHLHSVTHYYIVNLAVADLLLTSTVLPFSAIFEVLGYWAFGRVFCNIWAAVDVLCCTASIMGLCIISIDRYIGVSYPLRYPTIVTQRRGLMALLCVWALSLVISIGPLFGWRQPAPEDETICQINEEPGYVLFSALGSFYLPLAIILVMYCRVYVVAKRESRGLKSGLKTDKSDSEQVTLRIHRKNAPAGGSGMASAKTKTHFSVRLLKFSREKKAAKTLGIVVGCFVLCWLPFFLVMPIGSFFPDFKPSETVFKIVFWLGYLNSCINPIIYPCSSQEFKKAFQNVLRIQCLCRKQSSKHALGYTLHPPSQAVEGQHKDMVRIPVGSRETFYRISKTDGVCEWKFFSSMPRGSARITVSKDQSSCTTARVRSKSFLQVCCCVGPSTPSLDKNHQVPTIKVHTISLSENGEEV

Histamine H1 receptor = Histamine H1 receptor (Homo sapiens, UniProt P35367)
[2] = biological target: 5-hydroxytryptamine receptor 2A (Homo sapiens, UniProt P28223)

Compound	Ki [1] [nM]	Ki (Histamine H1 receptor) [nM]	Ki [2] [nM]
CN(C)CCOC1=Cc2ccccc2Sc2ccc(Cl)cc21 [2-Chloro-11-(2-(dimethylamino)ethoxy)dibenzo(b,f)thiepin]	7.3	3.3	
CN1CCN(C2=c3ccccc3=Nc3ccc(Cl)cc3N2)CC1 [6-chloro-10-(4-methylpiperazin-1-yl)-2,9-diazatricyclo[9.4.0.0^{3,8}]pentadeca-1,3(8),4,6,10,12,14-heptaene]		3.1	
CC1CCN(CCCC(=O)c2ccc(F)cc2)CC1 [CAS_3575-80-2]			102
